Compound activity from PubChem.
PINK1 modulator: PINK1 expression modulation | PINK1 immunofluorescence, high-content cytometry, 24 h | Potency, µM (doses to about 76.6 µM), usual class: activators | 0.2% of 410,000 active; active = well fitted activation curve with a large enough effect; inconclusive = small, poorly fitted or top-dose-only effect; cell line not stated here; also: nearly all actives have a fitted effect of over 65% in size
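Stable cell line treated 24 h with compounds at 5 concentrations (CCCP controls), then fixed and immunostained for PINK1 plus nuclear and cell stains; PINK1 immunofluorescence quantified by laser-scanning microplate cytometry.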
Giardia kill: kills Giardia lamblia; Giardia lamblia trophozoite viability; 0.15% of 340,000 active; activity change, % at 7.66 µM, hits read low; in the data active = activity change below about -80%; inconclusive = between about -30% and that limit;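 also: parasites exposed to compound for two days anaerobically before the ATP read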
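Anaerobic 48 hrs incubation at 37 deg C of 100 trophozoites/well with test compounds; ATPLite 1-Step luminescence, 15-30 min RT, reports cellular ATP as viability.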
12-LOX inh: ALOX12 (human) lipoxygenase inhibition | 1.1% of 580,000 active | AID 1671190 | purified 12hLO, xylenol orange hydroperoxide absorbance | Potency, µM (top dose mostly 108 µM), hits mostly inhibitors
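Hydroperoxide product was detected by ferrous iron/xylenol orange as the 573 to 405 nm absorbance ratio. Arachidonic acid at 40 uM (final) was turned over for 30 min at room temperature by 150 nM human 12hLO, pH 7.0 Hepes buffer, after 15 min compound preincubation.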
ERG-DNA inh: ERG Ets/DNA interaction inhibition; Potency, µM (highest dose often 76.9 µM), hits mostly inhibitors; P11308; fluorescence polarization, His-ERG Ets domain / labelled DNA; 0.028% of 370,000 active; active = well fitted inhibition curve with a large enough effect in the polarisation, with a control signal flat; inconclusive = small, poorly fitted or top-dose-only effect, or effect the other way, or a change in a side signal; inactive = no such curve, though single readings can be large or run the other way; the % refers to the polarisation;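 also: polarization taken with two DNA probes labelled with fluorescein and Texas red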
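His-tagged ERG Ets domain (1 uM in the protein solution; 300mM KCl, 50mM Tris-HCl, 1mM EDTA, 1mM DTT, pH 7.5) received compound, then a probe mix of 5 nM fluorescein-DNA and 100nM Texas-615-DNA. Fluorescence polarization was read for both dyes.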
miR-21 FLuc: miR-21 reporter, rising signal; Potency, µM (titrated, usually from 38.3 µM); AID 2288; 340,000 tested, under 10 active; HeLa miR-21 FLuc reporter, luciferase, 48 h; active = well fitted rising curve with a large enough effect; inconclusive = small, poorly fitted or top-dose-only effect; inactive = no such curve, though single readings can be large or run the other way;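 note: miR-21 action dims this reporter so a rising signal means less miR-21 action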
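HeLa miR-21-FLuc reporter line, endogenous miR-21; 2000 cells/well in DMEM/10% FBS; compound titration up to ~40uM final, 48 h, 37 degree Celsius; luciferase detection reagent, 15 min lysis, CCD luminescence.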
PTHR1 agonist: activates the human parathyroid hormone receptor PTHR1 | HEK293 GP2 PTHR1 cells, GloSensor cAMP luminescence, 1 h | Potency, µM (titrated, usually from 115 µM), most hits filed as activators | 0.075% of 410,000 active | AID 743266; also: nearly all actives have a fitted effect of over 55% in size
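HEK-293-derived GP2 cells expressing PTHR1 and a GloSensor cAMP reporter, 3,000/well, plated overnight, given luciferin plus IBMX (each 0.5 mM as added) for 1 h at 37 °C, then compound for 1 h at 37 °C. Luminescence was read after 15 min at room temperature.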
Of the large screens only hits and unclear results are named; the others gave an inactive call. In the library only some 1.3% were active in any assay of this set; here they are far more common. Unless noted, calls follow the shape of the dose curve; as a rule, active = well fitted curve in the direction sought with a large enough effect; inconclusive = small, poorly fitted or top-dose-only effect, or another doubt; inactive = no such curve, though single readings can be large; an effect the other way counts as inactive or inconclusive.

COc1ccccc1N1CCN(CC(=O)c2ccc(F)cc2)CC1	12-LOX inh 1.1µM
CN(Cc1ccccc1C(F)(F)F)C1CCCc2ccccc21 (stereo not given)	none (no result: PINK1 modulator, Giardia kill, ERG-DNA inh, miR-21 FLuc, PTHR1 agonist)
COc1ccccc1CNc1cc(-c2cccnc2)ncn1	12-LOX inh inconclusive (no result: Giardia kill, ERG-DNA inh, miR-21 FLuc, PTHR1 agonist)
CC1(C)Cc2c(C#N)c(N3CCCC3)nc(-c3ccco3)c2CO1	12-LOX inh inconclusive (no result: PINK1 modulator, Giardia kill, ERG-DNA inh, PTHR1 agonist)
CC1CCN(C(=O)C(=O)N2CCN(c3nc(-c4ccco4)c4c(c3C#N)CC(C)(C)OC4)CC2)CC1	12-LOX inh 14µM (no result: PINK1 modulator, Giardia kill, ERG-DNA inh, miR-21 FLuc, PTHR1 agonist)
CCCCN(C)c1nc(-c2ccco2)c2c(c1C#N)CC(C)(C)OC2	12-LOX inh 40µM
CC(NC(=O)c1cc(F)ccc1F)c1nnc2n1CCN(Cc1cccs1)CC2 (stereo not given)	none (no result: Giardia kill, ERG-DNA inh, miR-21 FLuc, PTHR1 agonist)
CC(=O)Nc1ccc(S(=O)(=O)NN=Cc2ccc(Cl)c(Cl)c2)cc1	12-LOX inh inconclusive (no result: miR-21 FLuc)
O=[N+]([O-])c1ccc(S(=O)(=O)NN=Cc2ccc(Cl)c(Cl)c2)cc1	12-LOX inh 18µM (no result: miR-21 FLuc)
CCOC(=O)C1=C(C)NC2=C(C(=O)c3ccccc32)C1c1ccc([N+](=O)[O-])o1 (stereo not given)	Giardia kill -95, 12-LOX inh 28µM
CCOC(=O)C1=C(C)NC(=O)NC1c1ccc([N+](=O)[O-])o1 (stereo not given)	Giardia kill inconclusive
CC(C(=O)NC1C=CS(=O)(=O)C1)N1C(=O)/C(=C/c2ccc(Cl)cc2)SC1=S (stereo not given)	Giardia kill inconclusive, 12-LOX inh 40µM
CCOc1ccc(NC(=S)NCc2ccc3[nH]c(C)cc3c2)cc1	12-LOX inh 10µM
Cc1cc2cc(CNC(=S)Nc3cccc(Br)c3)ccc2[nH]1	12-LOX inh 28µM (no result: PINK1 modulator, Giardia kill, ERG-DNA inh, miR-21 FLuc, PTHR1 agonist)
CCCCNC(=S)NCc1ccc2[nH]c(C)cc2c1	12-LOX inh inconclusive
Cc1ccc2c(c1)CCCN2CC(=O)Nc1cc(S(=O)(=O)N2CCCC2)ccc1Cl	12-LOX inh inconclusive (no result: miR-21 FLuc)
O=C(O)CC1(CC(=O)NCc2ccc(-c3cccs3)cc2)CCCCC1	none
Clc1cccc(-n2nnnc2NCc2ccccc2Oc2ccccn2)c1Cl	12-LOX inh 12µM (no result: PINK1 modulator, Giardia kill, ERG-DNA inh, miR-21 FLuc, PTHR1 agonist)
Cc1nccnc1Sc1ccccc1	none
O=C(NC1CCCC1)c1cc2nc(-c3ccco3)cc(C(F)(F)F)n2n1	none
c1coc(-c2cc3nc(NC4CCCCC4)ccn3n2)c1	12-LOX inh 45µM (no result: Giardia kill, ERG-DNA inh, miR-21 FLuc)
c1coc(-c2cc3nc(NCc4ccc5c(c4)OCO5)ccn3n2)c1	12-LOX inh 32µM (no result: Giardia kill, ERG-DNA inh, miR-21 FLuc)
c1ccc(-c2cc3nc(NCc4ccc5c(c4)OCO5)ccn3n2)cc1	none (no result: Giardia kill, ERG-DNA inh, miR-21 FLuc)
NS(=O)(=O)c1ccc(N=Nc2ccc(=O)[nH]c2O)cc1	12-LOX inh inconclusive
COc1ccccc1-c1nc(Nc2ccncc2)c2ccccc2n1	12-LOX inh 28µM (no result: Giardia kill, ERG-DNA inh, miR-21 FLuc, PTHR1 agonist)
FC(F)(F)c1ccccc1-c1nc(Nc2ccncc2)c2ccccc2n1	12-LOX inh inconclusive (no result: Giardia kill, ERG-DNA inh, miR-21 FLuc, PTHR1 agonist)
COc1ccccc1-c1nc(N(C)C)c2ccccc2n1	12-LOX inh 32µM (no result: Giardia kill, ERG-DNA inh, miR-21 FLuc, PTHR1 agonist)
COc1ccccc1-c1nc(NCc2cnc(C)cn2)c2ccccc2n1	12-LOX inh 20µM (no result: Giardia kill, ERG-DNA inh, miR-21 FLuc, PTHR1 agonist)
COc1ccccc1-c1nc(N(C)Cc2ccco2)c2ccccc2n1	12-LOX inh inconclusive (no result: Giardia kill, ERG-DNA inh, miR-21 FLuc, PTHR1 agonist)
COc1ccc(CN(Cc2cccn2C)S(=O)(=O)c2cccc(C(F)(F)F)c2)cc1	none
CC(NC(=O)CN1C(=O)COc2ccc(C(=O)COc3cccc(F)c3)cc21)c1ccccc1 (stereo not given)	none (no result: PINK1 modulator, Giardia kill, ERG-DNA inh, miR-21 FLuc, PTHR1 agonist)
c1ccc(-c2nn[nH]n2)cc1	none
Fc1cccc(-c2nn[nH]n2)c1	12-LOX inh 25µM
CCOc1ccc(CN2CCc3nc(N4CCN(C)CC4)[nH]c(=O)c3CC2)cc1	none (no result: PINK1 modulator, Giardia kill, ERG-DNA inh, miR-21 FLuc, PTHR1 agonist)
S=C(NNc1ccnc2cc(Cl)ccc12)Nc1ccc(Cl)cc1Cl	PINK1 modulator 8.9µM, 12-LOX inh inconclusive
CCOc1ccc(NC(=S)NNc2ccnc3cc(Cl)ccc23)cc1	PINK1 modulator inconclusive, 12-LOX inh inconclusive
Cc1c(Cl)sn(-c2ccc(Cl)cc2)c1=O	12-LOX inh 4.5µM, miR-21 FLuc inconclusive
COc1ccc(Cl)cc1NC(=S)NCCC(c1ccccc1)c1ccccc1	12-LOX inh 32µM
